Measured values taken from PubChem BioAssay AID633 (Emory University Molecular Libraries Screening Center, 2007).
Only a part is listed here, and it is no random draw. Some tests of the compounds listed are not included; inactive here does not mean inactive elsewhere. Active and inactive are the calls of the source.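 Rule for the calls: active = compounds whose percent inhibition of the receptor-coactivator binding signal exceeds about 50% in the single-dose screen (limit read from the data); inactive = the rest.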

By UniProt entry, the sequences of proteins in these tests, tags left out.
UniProt Q92731, whole entry: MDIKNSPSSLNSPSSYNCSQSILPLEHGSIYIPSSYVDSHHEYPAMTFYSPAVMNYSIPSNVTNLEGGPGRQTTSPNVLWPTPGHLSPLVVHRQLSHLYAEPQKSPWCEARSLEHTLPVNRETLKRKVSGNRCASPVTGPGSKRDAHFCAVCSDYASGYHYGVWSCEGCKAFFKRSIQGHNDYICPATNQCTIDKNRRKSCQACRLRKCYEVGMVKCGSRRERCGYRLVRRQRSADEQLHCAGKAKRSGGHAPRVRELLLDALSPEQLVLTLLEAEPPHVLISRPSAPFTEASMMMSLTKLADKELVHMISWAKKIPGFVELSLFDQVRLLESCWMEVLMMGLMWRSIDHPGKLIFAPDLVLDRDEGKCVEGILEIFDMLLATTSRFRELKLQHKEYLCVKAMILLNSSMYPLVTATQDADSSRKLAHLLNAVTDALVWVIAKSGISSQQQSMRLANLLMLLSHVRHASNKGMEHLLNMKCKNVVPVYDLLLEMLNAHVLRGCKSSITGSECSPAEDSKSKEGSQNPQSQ

target: Estrogen receptor beta (Homo sapiens) (UniProt Q92731); experiment: inhibitors of ERβ-SRC1 coactivator interaction, primary screen, biochemical, TR-FRET, ERβ LBD, SRC-1 peptide (AID 633); conditions: TR-FRET ER-beta LBD / SRC1-Cy5 peptide binding; at 25.6 µM; hits give high values;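 note: 0% = receptor plus peptide wells without compound and 100% = peptide-only wells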

SMILES | inhibition
CN(C)c1cccc(C(=O)NCC2(N(C)C)CCCCC2)c1 | inactive: -7.76%
O=C(OC1CN2CCC1CC2)C(CO)(c1ccccc1)c1ccccc1 (configuration not stated) | inactive: -11.9%
